# Measured values published in patent publication US12649746B2, “Ketorolaco derivative, pharmaceutical composition and preparation method therefor and use thereof” (NANJING HERON PHARMACEUTICAL SCIENCE AND TECHNOLOGY CO., …, priority 2020, dated 2026).
# Entries after “also recorded” stand apart in the source; their conditions may differ.
# Tests used:
# [1] = By-product toxicity test (metabolic byproducts in the human body); details: for Metabolic by-products in human body: by the metabolic pathways of the compounds in the human body; for Toxicity: toxicity of the metabolic by-products in human body
# [2] = Enzymolysis kinetics experiment of compounds in plasma; details: for degradation / metabolic rate in human plasma (in words): up to 120 min; for metabolic rates (in words): summary statement, metabolized in a human body
Structure (SMILES),Metabolic by-products in human body [1],Toxicity [1],degradation / metabolic rate in human plasma (in words) [2],metabolic rates (in words) [2]
CCC(OC(=O)OC)OC(=O)C1CCn2c(C(=O)c3ccccc3)ccc21 (centres unmarked) [N14],Propionaldehyde and methanol,Methanol is more toxic,,
CCOC(=O)OC(CC)OC(=O)C1CCn2c(C(=O)c3ccccc3)ccc21 (centres unmarked) [N15],Propionaldehyde and ethanol,low toxicity of byproducts; also recorded: relatively low,accelerated degradation and increased production of ketorolac; also recorded: relatively fast,higher metabolic rates
CCOC(=O)OC(OC(=O)C1CCn2c(C(=O)c3ccccc3)ccc21)C(C)C (centres unmarked) [N18],Isobutyraldehyde and ethanol,,,
CC(C)C(OC(=O)OC1CCCCC1)OC(=O)C1CCn2c(C(=O)c3ccccc3)ccc21 (centres unmarked) [N21],Isobutyraldehyde and cyclohexanol,relatively low toxicity of byproducts,,slow metabolic rates
CCC(OC(=O)OC1CCCCC1)OC(=O)C1CCn2c(C(=O)c3ccccc3)ccc21 (centres unmarked) [N20],Propionaldehyde and cyclohexanol,relatively low toxicity of byproducts,,slow metabolic rates
COC(=O)OC(OC(=O)C1CCn2c(C(=O)c3ccccc3)ccc21)C(C)C (centres unmarked) [N17],Isobutyraldehyde and methanol,,,
CCC(OC(=O)OC(C)C)OC(=O)C1CCn2c(C(=O)c3ccccc3)ccc21 (centres unmarked) [N16],,low toxicity of byproducts; also recorded: relatively low,accelerated degradation and increased production of ketorolac,higher metabolic rates
